# Earlier results as cited in US5652334A, “Method for design of substances that enhance memory and improve the quality of life” (City of Hope, priority 1993, dated 1997).
# System: CD-1 male mice
# Conditions: post-training ICV; references 1 and 12; cited from earlier work
row,Substance,amnestic effect on retention of FAAT (earlier publications)
1,Val His His Gln Lys Leu Val Phe Phe (VHHQKLVFF) [β-(12-20)],amnestic
2,Val His His Gln Lys Leu Val Phe Phe Ala Glu Asp Val Gly Ser Ash Lys (VHHQKLVFFAEDVGSNK) [β-(12-28)],amnestic
